# Data published in PubChem BioAssay AID434994 (NMMLSC, 2010).
# The list shows a part of the results, in another mix than the full data. Some of these compounds have results that are not shown, active ones among them. Active and inactive are the calls of the source.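 How the source made its calls: active means superoxide signal below 65% of the plate average of sample wells; inactive means the rest.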
# Assay: superoxide lowering in aged yeast cells, confirmation, cherry picked compounds (AID 434994);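 further: cells aged with compound for 7 days at 30 degrees C before staining; 100% equals mean DHE fluorescence of all compound wells on the plate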
# Conditions: S. cerevisiae aging, superoxide DHE fluorescence; at 10 µM; active compounds read low
smiles,measurement,value
COc1cc(C(=O)NCC2(N(C)C)CCCCC2)c([N+](=O)[O-])cc1OC,superoxide response (% of plate),inactive: 95.7%
